Data published in patent publication EP4198126B1 (priority 2021, dated 2023).

System: human primary T cells
Details: Figure 4F

## Cc1cc2ncnn2cc1Nc1ncc2c(n1)n(C1CCOCC1)c(=O)n2C [AZD-7648]
  cell viability after genome editing: did not alleviate the genome-editing mediated reduction in cell viability
